This assay relates to NIH3T3-HGL HSF-1 response element luciferase, 48 h. The experiment in a line: sustained heat shock response element induction – cell-based, mouse, luciferase, cherry-pick, dose, confirmation (AID 602296).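 Also: test compounds applied by themselves with no MG132 co-treatment.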

SMILES strings stand for the structures. Inconclusive results are not listed. Activity calls are given as the source filed them.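 The calls were made as follows: active = fitted activation curve crossing 40% at a concentration no higher than the sample's top valid tested dose; inconclusive = flat fitted curve at 30% to 70% activation, or poor curve fit; inactive = signal decrease, flat curve within 30%, or the rest.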 A value given as a limit tells only on which side of the number the result lay.

As for `COc1ccc(OP(C)(=O)Nc2ccccc2Br)cc1` (stereo unspecified), the AC40 is inactive: > 26 µM.

The values are drawn from PubChem BioAssay AID602296 (Broad Institute, 2012).
